{"sequences": {"note": "Chains of the proteins cited; added tags and fusions are not shown.", "UniProt P14618, whole entry, looked up": "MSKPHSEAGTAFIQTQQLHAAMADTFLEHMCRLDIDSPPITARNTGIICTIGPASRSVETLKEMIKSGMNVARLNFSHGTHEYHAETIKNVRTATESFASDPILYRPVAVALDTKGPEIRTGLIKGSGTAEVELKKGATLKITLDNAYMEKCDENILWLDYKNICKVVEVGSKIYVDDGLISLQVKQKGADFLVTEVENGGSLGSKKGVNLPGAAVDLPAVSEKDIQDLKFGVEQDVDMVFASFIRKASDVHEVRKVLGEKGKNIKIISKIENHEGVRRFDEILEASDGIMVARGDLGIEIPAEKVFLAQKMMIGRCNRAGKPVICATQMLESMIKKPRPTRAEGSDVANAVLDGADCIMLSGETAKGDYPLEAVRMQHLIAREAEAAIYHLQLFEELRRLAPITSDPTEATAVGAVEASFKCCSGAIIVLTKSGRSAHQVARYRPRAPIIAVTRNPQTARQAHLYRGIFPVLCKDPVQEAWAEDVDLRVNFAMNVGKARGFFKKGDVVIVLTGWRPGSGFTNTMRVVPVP"}, "source": "PubChem BioAssay AID1540", "about": "(National Center for Advancing Translational Sciences (NCATS), 2009)", "note": "Only a part is listed here, and it is no random draw. Inconclusive results are not listed. The source made the active and inactive calls. The call rests on the fitted dose curve; in most records, active means well fitted activation curve with a large enough effect; inconclusive means small, poorly fitted or top-dose-only effect, or effect the other way; inactive means flat fitted curve, though single readings scatter.", "data": [{"biological_target": "Pyruvate kinase PKM (Homo sapiens) (UniProt P14618)", "test": "Secondary assay for Activators of Human Pyruvate Kinase M2 isoform", "settings": "purified hPK-M2, LDH-coupled NADH fluorescence kinetic", "text": "Confirmatory assay NIH Chemical Genomics Center [NCGC] Matthew G. Vander Heiden, M.D., Ph.D. [Harvard Medical School, 77 Avenue Louis Pasteur, Boston, MA 02115] NCGC Assay Overview: Human pyruvate kinase muscle 2 (hPK-M2)enzyme was supplied as a highly purified (>95% pure) preparation from Harvard Medical School and a secondary assay was used to evaluate compounds. This assay couples the formation of pyruvate from hPK-M2 using lactate dehydrogenase (LDH) and NADH. The depletion of NADH is followed in a fluorescent-based kinetic assay that follows the formation of pyruvate to lactate, as catalyzed LDH (described by Hannaert et al., 2002)1 Pyruvate kinase substrates, PEP and ADP, were present in the assay at 0.1 mM and 4 mM respectively. In this kinetic assay initial rates were determined by following the fluorescence of NADH depletion.\nNCGC Assay Protocol Summary: Three uL of substrate mix (final concentration, 50 mM Tris-Cl pH 8.0, 200 mM KCl, 15 mM MgCl2, 0.1 mM PEP, 4.0 mM ADP, and 0.2 mM NADH) was dispensed into black-solid 1536 well plates. 23 nL of compounds were delivered by a pin tool and 1 uL of enzyme mix (final concentrations, 10 nM hPK-M2 and 1 uM of LDH) was added. Plates were immediately placed in ViewLux (Perkin Elmer) and NADH fluorescence was determined at 30 second exposure intervals for between 3 and 6 minutes. […]", "values": [{"smiles": "Nc1cccc(S(=O)(=O)N2CCCN(S(=O)(=O)c3ccc4c(c3)OCCO4)CC2)c1", "Potency": "active: 91.9 nM"}]}]}
